Substrate in the data set: Nc1ncnc2c1ncn2[C@@H]1O[C@H](CO)C=C1F

B1: Adenosine deaminase (Bos taurus), P56658 (protein)
chain: MAQTPAFNKPKVELHVHLDGAIKPETILYYGRKRGIALPADTPEELQNIIGMDKPLSLPEFLAKFDYYMPAIAGCREAVKRIAYEFVEMKAKDGVVYVEVRYSPHLLANSKVEPIPWNQAEGDLTPDEVVSLVNQGLQEGERDFGVKVRSILCCMRHQPSWSSEVVELCKKYREQTVVAIDLAGDETIEGSSLFPGHVKAYAEAVKSGVHRTVHAGEVGSANVVKEAVDTLKTERLGHGYHTLEDATLYNRLRQENMHFEVCPWSSYLTGAWKPDTEHPVVRFKNDQVNYSLNTDDPLIFKSTLDTDYQMTKNEMGFTEEEFKRLNINAAKSSFLPEDEKKELLDLLYKAYGMPSPASAEQCL
For B1, the Km (usually the substrate concentration at which the rate is half of its maximum) was found to be 23 µM.

For the origin of these results see ChEMBL document CHEMBL1135749, “Stereoselective synthesis and antiviral activity of D-2',3'-didehydro-2',3'-dideoxy-2'-fluoro-4'-thionucleosides” (J Med Chem, 2002).
